# Measured affinities in a library of Ab-14 light chain variants

Antigen: PDVDLGDISGINAS, a 14-residue peptide of the SARS-CoV-2 spike HR2 region.

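The starting antibody came from a phage panning campaign against this peptide. In library AAYL50, one, two or three CDR residues were substituted; doubles and triples were drawn at random. The scFvs were displayed on barcoded MATa yeast, the peptide on MATalpha yeast. Mating (16 h, 30 °C) was followed by selection of diploids and sequencing of their barcodes. Each replicate has its own calibration line, from reference interactions of the BCL2 family. There are three technical replicates.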

Parent scFv Ab-14: VH joined to VL by the linker GGGGSGGGGSGGGGS. Changes lie in the light chain CDRs alone.
VH: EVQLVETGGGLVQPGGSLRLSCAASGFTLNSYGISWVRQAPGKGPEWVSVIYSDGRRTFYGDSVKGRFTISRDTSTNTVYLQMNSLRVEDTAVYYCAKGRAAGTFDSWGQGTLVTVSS
VL: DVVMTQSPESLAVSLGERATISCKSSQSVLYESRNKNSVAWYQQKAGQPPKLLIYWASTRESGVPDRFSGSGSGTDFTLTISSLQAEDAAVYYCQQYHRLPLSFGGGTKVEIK

Variants are written as CDR1, CDR2 and CDR3 of the light chain (limits as in the source). Parent: KSSQSVLYESRNKNSVA, WASTRES, QQYHRLPLS. Numbers give log10(Kd / nM), so 0 is 1 nM and 3 is 1 µM. Smaller is tighter. A pair that was not seen in that replicate is written "n.d."; this usually means weak binding, but a binder can also be missed.

CDR-L1	CDR-L2	CDR-L3	log10 Kd (nM) by replicate	signal with controls
KSWQEALYESRNKNSVA	WASTRES	QQYHRLPLS	2.64 2.80 3.04	5 of 9 (4.69)
DSSQSVLYESRNKNSVA	WAMTRES	AQYHRLPLS	n.d. n.d. n.d.	0 of 9
KRSQSVLYESRNKNSVA	NASTRES	FQYHRLPLS	0.04 0.22 0.02	7 of 9 (5.06)
KSSQTVLYESRNKNSVA	RPSTRES	QQYHRLPLS	5.83 n.d. n.d.	4 of 9 (4.10)
KSGQSVLYESRNKNSQA	WASTRES	QQYHRLDLS	n.d. n.d. n.d.	0 of 9
PSSQSVLYESRIKNSVA	WASTRES	QQYHRYPLS	n.d. n.d. n.d.	1 of 9 (3.08)
KSSQGVLYESRNKPSLA	WASTRES	QQYHRLPLS	2.69 2.62 2.92	2 of 9 (4.15)
KSSQSCLYESRNKNVVA	WASTRES	QAYHRLPLS	4.58 n.d. n.d.	0 of 9
RSSQEVLYESRNKNSVA	WCSTRES	QQYHRLPLS	n.d. n.d. n.d.	0 of 9
KSSQSVLYYSCNKNSVA	WADTRES	QQYHRLPLS	2.39 2.36 2.35	1 of 9 (4.73)
KSSQFVLYESRNKNSVA	WASTRES	QQYFRLMLS	n.d. n.d. n.d.	0 of 9
KSSQSVLYESRNKNSVV	WASTNES	QQYHRLPHS	n.d. 4.35 n.d.	5 of 9 (4.03)
KSSQSVLHESRNKNSDA	QASTRES	QQYHRLPLS	n.d. n.d. n.d.	0 of 9
KSSFDVLYESRNRNSVA	WASTRES	QQYHRLPLS	1.31 1.40 1.42	1 of 9 (4.68)
KSQQSVLYEFRNKNSVA	WASTRES	VQYHRLPLS	n.d. n.d. 5.59	1 of 9 (2.99)
KSSQSYLYESRNKNSVA	WASTRES	QQYHRLPLS	0.90 0.97 0.88	1 of 9 (3.69)
KSSTLVLYESRNKNSVA	WASTRES	QQYHTLPLS	2.13 1.50 2.79	0 of 9
ESSQSVLYESRNKNSVA	WASTREM	IQYHRLPLS	4.69 4.02 4.24	3 of 9 (3.98)
KSSQSVLYESRNKNSVA	WANTRES	QQYRRLPVS	n.d. n.d. n.d.	0 of 9
KYSQSVYYESRNKNHVA	WASTRES	QQYHRLPLS	0.73 1.02 0.93	5 of 9 (5.15)
KSSQSVLVESTNKNSVA	WKSTRES	QQYHRLPLS	1.01 1.13 1.10	2 of 9 (3.99)
KSSQYVLYESRNKNSVA	WASTRES	QRYHRLPLV	n.d. n.d. n.d.	0 of 9
KSSQSVLTESRNKNSVA	WSSTRES	QQYHRLPLS	1.02 1.14 1.08	1 of 9 (3.47)
KSSQSVLYESRGKNKVA	WASTRES	QQYHRLPLS	4.96 n.d. n.d.	3 of 9 (4.61)
KSSQSVLYESRNINSSA	WASTRES	QQYHRLPLT	n.d. n.d. n.d.	0 of 9
KSSQSVLGESRNKNSVA	WGSTRES	QQYHRLPLS	0.17 0.40 0.26	3 of 9 (4.50)
KSSQSDLYESRNKNSVA	WASTRES	QQYIRVPLS	n.d. n.d. n.d.	1 of 9 (2.00)
KSSQSVLYFSNNKNSVA	WASTRES	QQYHRLMLS	1.79 1.64 1.47	2 of 9 (4.38)
KHSQSVLYESINSNSVA	WASTRES	QQYHRLPLS	1.33 1.59 1.57	3 of 9 (3.88)
KSSQSTLYESRNKNSVA	WASEHES	QQYHRLPLS	n.d. n.d. n.d.	0 of 9
KSSQSVLYESHNKTSVA	WASTRES	QQYHRLPLS	n.d. n.d. n.d.	2 of 9 (4.08)
KSSQSVCYESRNKNSVA	WASHQES	QQYHRLPLS	n.d. n.d. n.d.	1 of 9 (3.68)
KFSQSVLYESRNQNSVA	WASTRES	QQYHRLPGS	-0.01 0.23 0.07	1 of 9 (4.65)
KSSQVVLYETRNKMSVA	WASTRES	QQYHRLPLS	2.50 2.54 2.86	2 of 9 (5.04)
KSSQSFLYESRNKNSVA	WASTRES	HQYHRLPPS	n.d. n.d. n.d.	1 of 9 (3.86)
KPSQSALYESRNKNSVA	WASTRES	QQYARLPLS	2.04 1.83 2.17	1 of 9 (4.27)
KSEQSVLYESRNKNSVH	WASTHES	QQYHRLPLS	n.d. n.d. n.d.	2 of 9 (4.62)
FSSQSVLNESRNKNSVA	WASTRHS	QQYHRLPLS	1.21 1.31 1.30	1 of 9 (5.44)
KSSQSVLYESYNINSVA	WASTRES	QQYHREPLS	4.03 n.d. 5.55	2 of 9 (4.56)
KSSQSVLYESRNKNSVA	WASTRES	QQYDREPLG	n.d. 4.68 n.d.	0 of 9
KSSQSVLYFSHNKNSVA	WASTRES	EQYHRLPLS	3.45 n.d. n.d.	0 of 9
ISSQSVLYESRNDNSVA	WASTREC	QQYHRLPLS	1.98 2.24 2.54	4 of 9 (4.03)
KSSQSVLYESRKKNSAA	WASTRES	QQYHKLPLS	n.d. n.d. 2.70	1 of 9 (2.52)
KGSQSVLYCSRNKNSVA	WASTRES	QQRHRLPLS	n.d. n.d. n.d.	1 of 9 (2.91)

For reference, the parent read 0.65 as the reference entry and 1.68 as a member of this library. Three control strains display no target. For library AAYL50, 18% of the pairings with them gave a signal, with a median of 4.19 and one signal in twenty below 2.99, so weak values seen in few replicates may be background. The control count says in how many pairings with the empty strains this scFv gave a signal, with their mean in brackets.

Data: MIT Lincoln Laboratory AlphaSeq set, Engelhart et al. 2022, doi:10.1038/s41597-022-01779-4, as distributed in FLAb.